ChEMBL document CHEMBL4376854, “Investigation of the Adrenergic and Opioid Binding Affinities, Metabolic Stability, Plasma Protein Binding Properties, and Functional Effects of Selected Indole-Based Kratom Alkaloids” (J Med Chem, 2020)

How the values were obtained:
[1] = human, microsomes, 1 µM
[2] = human, plasma, 1 µM

CC[C@@H]1CN2CCc3c([nH]c4cccc(O)c34)[C@@H]2C[C@@H]1/C(=C\OC)C(=O)OC
Fu [1]: 0.534 | Fu [2]: 0.027
